# AlphaSeq binding of Ab-91 heavy chain variants to a spike HR2 peptide

Values reported by Engelhart et al. 2022, doi:10.1038/s41597-022-01779-4 (FLAb copy).

The target is the same throughout: PDVDLGDISGINAS, from the HR2 region of SARS-CoV-2 spike.

Each scFv is VL, the linker GGGGSGGGGSGGGGS, VH, as in the parent Ab-91, and differs from it in the CDRs of the heavy chain only.
VL: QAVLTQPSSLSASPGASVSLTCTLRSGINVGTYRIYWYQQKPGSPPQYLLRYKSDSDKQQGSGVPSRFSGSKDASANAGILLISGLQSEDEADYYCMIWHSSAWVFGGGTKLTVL
VH: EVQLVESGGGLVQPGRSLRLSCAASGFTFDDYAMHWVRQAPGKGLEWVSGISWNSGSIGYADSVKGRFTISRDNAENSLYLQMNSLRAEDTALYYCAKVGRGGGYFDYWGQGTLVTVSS

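In library AAYL51, one, two or three CDR residues were substituted; doubles and triples were drawn at random. The assay is AlphaSeq: two haploid yeast populations carry antibody and antigen on their surface. The frequency of each diploid, read from paired DNA barcodes, reflects how well the two displayed proteins bind. Scores were corrected for input abundance and mapped to Kd with protein pairs of known affinity run in the same pool. There are three technical replicates.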

Substitutions are numbered in sequence along the VH above, starting at 1 (not Kabat). Scale: log10 of Kd in nM, estimated from mating counts; low values are strong binders. A pair that was not seen in that replicate is written "n.d."; this usually means weak binding, but a binder can also be missed.

changes	log10 Kd, replicates	empty controls
S57F/S63C/K65A	n.d. n.d. n.d.	0 of 9
G50S/A61Q/D62V	n.d. n.d. n.d.	1 of 9 (3.34)
G26K/R101P	4.61 3.83 n.d.	3 of 9 (3.59)
I51V/S63K/G104T	3.98 n.d. 3.13	2 of 9 (3.47)
I51D/N54K/V64Q	n.d. n.d. n.d.	0 of 9
D62N/G102Y/G104M	n.d. n.d. n.d.	0 of 9
D30L/D31M/D107G	3.78 4.59 3.79	2 of 9 (4.55)
F29V/S57L/Y108F	n.d. n.d. n.d.	0 of 9
H35P/G56N/F106Y	n.d. n.d. n.d.	0 of 9
F27E/T28S/D62A	3.37 n.d. n.d.	1 of 9 (5.16)
G56S/K65E/G100H	3.31 3.14 3.03	4 of 9 (4.58)
D31G/I58A/V99G	n.d. 4.62 n.d.	3 of 9 (4.36)
D31L/S57I/D107I	3.50 n.d. n.d.	0 of 9
N54Q/S55G/G56T	n.d. n.d. n.d.	1 of 9 (3.95)
I51L/W53Y/S55D	n.d. n.d. n.d.	0 of 9
I51R/S52G/G59S	n.d. 3.34 n.d.	1 of 9 (3.74)
Y32I/D62F/G102F	4.78 6.25 n.d.	2 of 9 (5.03)
G56A/Y60P	n.d. n.d. n.d.	2 of 9 (4.37)
W53G/G100S/F106R	5.34 n.d. n.d.	2 of 9 (4.54)
V64L/G103W/D107H	n.d. 3.74 n.d.	0 of 9
Y108S	0.66 0.41 -0.41	2 of 9 (3.17)
Y32R/G104H/F106E	4.60 n.d. n.d.	0 of 9
S57N/Y60H/V64W	n.d. n.d. 3.71	0 of 9
H35V/S55R/G56F	n.d. n.d. n.d.	3 of 9 (3.78)
F29P/D31Y/A33F	4.26 6.44 5.49	4 of 9 (4.21)
S52M/G56V/V99L	5.62 5.12 4.69	6 of 9 (4.84)
T28N/Y32T/N54M	3.59 4.65 4.07	5 of 9 (5.09)
M34I/I51A/S55Q	3.88 n.d. 4.19	2 of 9 (3.98)
T28G/S63F/V99T	n.d. n.d. n.d.	0 of 9
Y32T/Y60G/G103N	n.d. 4.26 5.07	6 of 9 (4.92)
M34V/W53V/V99G	n.d. n.d. n.d.	0 of 9
W53F/S63Q/G103S	n.d. n.d. n.d.	0 of 9
Y32A/W53D/S63L	n.d. 3.51 n.d.	1 of 9 (4.84)
D30E/D31C/D107L	n.d. n.d. n.d.	1 of 9 (3.25)
I51G/G56L/V99S	4.12 n.d. 5.09	3 of 9 (4.73)
S55N/S57W/F106T	n.d. n.d. n.d.	3 of 9 (4.20)
H35Y/Y60F/F106R	n.d. n.d. n.d.	0 of 9
G50A/G59M/V64Q	n.d. n.d. n.d.	0 of 9
I51W/I58T/R101L	3.68 4.46 n.d.	0 of 9
F29K/D62Q	1.91 2.02 1.21	3 of 9 (4.71)
S57A/G104N	5.09 4.78 n.d.	6 of 9 (5.29)
A33H/V64Y/F106M	3.40 n.d. n.d.	0 of 9
H35M/G59I/A61W	4.88 n.d. n.d.	2 of 9 (4.64)
M34I/S55D/G102L	n.d. n.d. n.d.	1 of 9 (1.91)
F29D/G59S/A61M	n.d. n.d. n.d.	0 of 9
F27W/G56Q/V64W	4.99 n.d. n.d.	4 of 9 (3.96)
I51N/G102S	5.09 n.d. n.d.	0 of 9

A selection of 2 entries from above:

changes	log10 Kd, replicates	empty controls
S57A/G104N	5.09 4.78 n.d.	6 of 9 (5.29)
I51V/S63K/G104T	3.98 n.d. 3.13	2 of 9 (3.47)

As a blank, each scFv also met three strains without target: over library AAYL51, 21% of these pairings were detected, typically at 4.54 and seldom below 3.26. The control count says in how many pairings with the empty strains this scFv gave a signal, with their mean in brackets.